Measurements reported in PubChem BioAssay AID1259332 (Broad Institute, 2017).
Some tests of the compounds listed are not included; inactive here does not mean inactive elsewhere. Active and inactive are the calls of the source. No rule for the calls is given here.

System: B cell line, CD40 signaling inhibition reporter
Experiment: inhibitors of CD40 signaling, dose response, B cell lineage (AID 1259332);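 also: cells stimulated with CD40 ligand tCD40L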

## C=C(C)C#CC(O)(C(=O)OC1CCN(C)CC1)c1ccccc1 (stereo unspecified)
  AC50: inactive: > 7 µM
